From PubChem BioAssay (Tox21)
Several values for one entry are separate records, joined by “and”; a condition that tells them apart may be missing. Identical values can stand only once. The list shows a part of the results, in another mix than the full data. Records with an inconclusive call do not appear. Activity calls are given as the source filed them. Unless noted, calls come from the whole dose curve; as a rule, active = well fitted curve in the direction sought with a large enough effect in the repeat runs; inconclusive = weak or mixed curves; inactive = no such curve, though single readings can be large; an effect the other way counts as inactive or inconclusive.

What was measured:
[1] = qHTS assay for small molecules that induce genotoxicity in human embryonic kidney cells expressing luciferase-tagged ATAD5 (AID 651632); note: nearly all actives have a fitted effect of over 15% in size
How it was run: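 DMSO vehicle served as the control. HEK293T reporter cells, 16 hr at 37C, then 30 min Amplite at room temperature; ATAD5 induction is measured as luciferase activity.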

[2] = qHTS assay for small molecules that induce genotoxicity in human embryonic kidney cells expressing luciferase-tagged ATAD5 - cell viability (AID 651634; calls by dose curve; note: nearly all actives have a fitted effect of over 25% in size); conditions: HEK293T ATAD5-luc cells viability, CellTiter-Fluor, 15.5 h
How it was run: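 Here HEK293T cells with the ATAD5 luciferase reporter are incubated with test compounds for 15.5 hr, and cytotoxicity is then gauged by measuring protease activity in live cells using fluorescence.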

[3] = qHTS assay to test for compound auto fluorescence at 590 nm (red) in HepG2 cells (AID 720674); conditions: HepG2 autofluorescence, red 540/590 nm, 1 h
How it was run: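 1 hr compound incubation on HepG2 cells, 37 C, 5% CO2; plate read ex 540 nm / em 590 nm; intensities reported as Rose Bengal sodium equivalents.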

[4] = qHTS assay to test for compound auto fluorescence at 460 nm (blue) in HEK293 cells (AID 720678); conditions: blue autofluorescence 405/460 nm
How it was run: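 Cells were seeded and left to adhere for 4-5 hr at 37C. Compounds were then pin-transferred. After an overnight incubation at 37C under 5% CO2, intrinsic fluorescence at 405/460 nm was measured and referenced to triamterene.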

[5] = qHTS assay to test for compound auto fluorescence at 535 nm (green) in HEK293 cells (AID 720680); conditions: green autofluorescence 485/535 nm
[6] = qHTS assay to test for compound auto fluorescence at 535 nm (green) in HEK293 cell free culture (AID 720682); conditions: cell-free medium, green autofluorescence 485/535 nm, hits give high values
How it was run: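 Green-channel intensity (Ex/Em 485/535 nm) was recorded from compound-treated wells containing only DMEM with 10% FBS. Fluorescein provided the equivalency standard.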

[7] = qHTS assay to test for compound auto fluorescence at 590 nm (red) in HEK293 cell free culture (AID 720683); conditions: cell-free medium autofluorescence, Ex540/Em590 red
How it was run: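 Red-channel autofluorescence of compounds in culture medium (DMEM, 10% FBS), no cells, measured at 540/590 nm. Rose Bengal sodium is the reference fluorophore for equivalence.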

[8] = qHTS assay to test for compound auto fluorescence at 590 nm (red) in HepG2 cell free culture (AID 720684); conditions: cell-free medium autofluorescence, red 540/590 nm
How it was run: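 Cell-free; medium MEM + 10% FBS; compound or DMSO added by pintool; read Ex 540/Em 590 nm; Rose Bengal sodium as red reference fluorophore.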

[9] = qHTS assay for small molecule disruptors of the mitochondrial membrane potential (AID 720635); note: potency is the fitted concentration of half-maximal effect
How it was run: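 Mitochondrial membrane potential tracked with Mito-MPS dye, red aggregates (ex 540/em 590 nm) against green monomers (ex 490/em 535 nm). Compound treatment 1 hr at 37C, dye 30 min in HepG2.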

[10] = qHTS assay for small molecule agonists of the p53 signaling pathway (AID 651631; calls by dose curve; note: nearly all actives have a fitted effect of over 15% in size); conditions: HCT-116 p53RE-bla reporter, beta-lactamase FRET ratio, 16 h
How it was run: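 We treat p53RE-bla HCT-116 cells with compounds for 16 h at 37 °C, add LiveBLAzer B/G FRET substrate for 2 h at room temperature, and measure fluorescence intensity.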
% is set by controls: 0 for no effect and ±100 for the full control effect.

Cc1ccc([N+](=O)[O-])c([N+](=O)[O-])c1
inactive: Potency [1] | activity, negative = cytotoxicity ([2]; at 83.3 µM (top of the series)) -23% | activity, negative = cytotoxicity ([2]; at 95.3 µM (top of the series)) -6.06% | fluorescence, relative to Rose Bengal ([3]; at 91.3 µM (top of the series)) 0.177% | fluorescence, relative to Rose Bengal ([3]; at 95.7 µM (top of the series)) 0.0101% | fluorescence, % of triamterene ([4]; at 91.3 µM (top of the series)) -0.006% | fluorescence, % of triamterene ([4]; at 95.7 µM (top of the series)) -0.16% | fluorescence, % of fluorescein ([5]; at 91.3 µM (top of the series)) -0.008% | fluorescence, % of fluorescein ([5]; at 95.7 µM (top of the series)) 0.107% | activity change ([6]; at 91.3 µM (top of the series)) -0.0043% | activity change ([6]; at 95.7 µM (top of the series)) 0.0227% | fluorescence, % of fluorescent control ([7]; at 91.3 µM (top of the series)) 0.266% | fluorescence, % of fluorescent control ([7]; at 95.7 µM (top of the series)) -0.403% | fluorescence, % of Rose Bengal ([8]; at 91.3 µM (top of the series)) 0.0039% | fluorescence, % of Rose Bengal ([8]; at 95.7 µM (top of the series)) 0.231%

O=[N+]([O-])[O-].[NH4+]
inactive: Potency [1] | activity, negative = cytotoxicity ([2]; at 83.3 µM (top of the series)) 10.8% and 2.56% and -15.5% | fluorescence, relative to Rose Bengal ([3]; at 46 µM (top of the series)) -0.133% | fluorescence, relative to Rose Bengal ([3]; at 91.3 µM (top of the series)) 0.0467% and 0.24% | fluorescence, % of triamterene ([4]; at 46 µM (top of the series)) 0.0346% | fluorescence, % of triamterene ([4]; at 91.3 µM (top of the series)) 0.0711% and 0.054% | fluorescence, % of fluorescein ([5]; at 46 µM (top of the series)) 0.0191% | fluorescence, % of fluorescein ([5]; at 91.3 µM (top of the series)) 0.0159% and -0.0068% | activity change ([6]; at 46 µM (top of the series)) -0.0787% | activity change ([6]; at 91.3 µM (top of the series)) 0.0169% and 0.0092% | fluorescence, % of fluorescent control ([7]; at 46 µM (top of the series)) 0.08% | fluorescence, % of fluorescent control ([7]; at 91.3 µM (top of the series)) -0.0171% and 0.0915% | fluorescence, % of Rose Bengal ([8]; at 46 µM (top of the series)) 0.498% | fluorescence, % of Rose Bengal ([8]; at 91.3 µM (top of the series)) -0.0424% and 0.153%

CCOC(=O)Cl
inactive: Potency [9]

Nc1cc([N+](=O)[O-])cc([N+](=O)[O-])c1O
inactive: activation ([10]; at 95.1 µM (top of the series)) -6.23% | Potency [1] | fluorescence, relative to Rose Bengal ([3]; at 95.7 µM (top of the series)) 0.111% | fluorescence, % of triamterene ([4]; at 95.7 µM (top of the series)) -1.15% | fluorescence, % of fluorescein ([5]; at 95.7 µM (top of the series)) -0.546% | activity change ([6]; at 95.7 µM (top of the series)) -0.272% | fluorescence, % of fluorescent control ([7]; at 95.7 µM (top of the series)) -0.335% | fluorescence, % of Rose Bengal ([8]; at 95.7 µM (top of the series)) -0.0345%
active: Potency [9] 2.79 µM

COP(C)(=O)OC
inactive: activation ([10]; at 73.3 µM (top of the series)) -1.69% | activation ([10]; at 95.1 µM (top of the series)) 1.34% | Potency [1] | activity, negative = cytotoxicity ([2]; at 83.3 µM (top of the series)) -2.04% | activity, negative = cytotoxicity ([2]; at 95.3 µM (top of the series)) 25.1% | Potency [9] | fluorescence, relative to Rose Bengal ([3]; at 91.3 µM (top of the series)) 0.264% | fluorescence, relative to Rose Bengal ([3]; at 95.7 µM (top of the series)) 0.0978% | fluorescence, % of triamterene ([4]; at 91.3 µM (top of the series)) 0.0414% | fluorescence, % of triamterene ([4]; at 95.7 µM (top of the series)) 0.106% | fluorescence, % of fluorescein ([5]; at 91.3 µM (top of the series)) -0.0158% | fluorescence, % of fluorescein ([5]; at 95.7 µM (top of the series)) 0.0087% | activity change ([6]; at 91.3 µM (top of the series)) -0.0041% | activity change ([6]; at 95.7 µM (top of the series)) 0.0851% | fluorescence, % of fluorescent control ([7]; at 91.3 µM (top of the series)) 0.166% | fluorescence, % of fluorescent control ([7]; at 95.7 µM (top of the series)) -0.0734% | fluorescence, % of Rose Bengal ([8]; at 91.3 µM (top of the series)) 0.0911% | fluorescence, % of Rose Bengal ([8]; at 95.7 µM (top of the series)) 0.0396%

Cc1cccc([N+](=O)[O-])c1[N+](=O)[O-]
active: Potency [9] 4.58 µM
inactive: Potency [1] | activity, negative = cytotoxicity ([2]; at 83.3 µM (top of the series)) 16.3% | fluorescence, relative to Rose Bengal ([3]; at 91.3 µM (top of the series)) 0.374% | fluorescence, % of triamterene ([4]; at 91.3 µM (top of the series)) -0.378% | fluorescence, % of fluorescein ([5]; at 91.3 µM (top of the series)) -0.202% | activity change ([6]; at 91.3 µM (top of the series)) -0.19% | fluorescence, % of fluorescent control ([7]; at 91.3 µM (top of the series)) -0.591% | fluorescence, % of Rose Bengal ([8]; at 91.3 µM (top of the series)) 0.361%
